Results reported in US10463690B2, “Method and compositions for treating cancerous tumors” (priority 2016, dated 2019).

Assay type: in vivo, Mice (SK1IPYMT 4913×SK1FVB)
Experimental: Part 2—Upon completion of Part 1, Methylene blue (MB) was injected into the same mice that were injected with INtume in Part 1. The purpose was to see how and where the test product spread throughout the body. Mice were euthanized so that internal cavity could be examined. Organs were cut in half for inspection of the extent of saturation.

Structure (SMILES): CN(C)c1ccc2nc3ccc(=[N+](C)C)cc-3sc2c1 [methylene blue, Methylene blue]
- distribution of dye after injection into spleen: The entire spleen got saturated with dye but none of the other organs did
